This note sets out measurements from the Kinase Knowledgebase extract (Sharma et al. 2016).

Sequences of proteins named here, by UniProt entry; tags and fusion partners are left off. A change or cut given only in a name is not applied to a line headed by its entry.
UniProt P42336, whole entry, looked up: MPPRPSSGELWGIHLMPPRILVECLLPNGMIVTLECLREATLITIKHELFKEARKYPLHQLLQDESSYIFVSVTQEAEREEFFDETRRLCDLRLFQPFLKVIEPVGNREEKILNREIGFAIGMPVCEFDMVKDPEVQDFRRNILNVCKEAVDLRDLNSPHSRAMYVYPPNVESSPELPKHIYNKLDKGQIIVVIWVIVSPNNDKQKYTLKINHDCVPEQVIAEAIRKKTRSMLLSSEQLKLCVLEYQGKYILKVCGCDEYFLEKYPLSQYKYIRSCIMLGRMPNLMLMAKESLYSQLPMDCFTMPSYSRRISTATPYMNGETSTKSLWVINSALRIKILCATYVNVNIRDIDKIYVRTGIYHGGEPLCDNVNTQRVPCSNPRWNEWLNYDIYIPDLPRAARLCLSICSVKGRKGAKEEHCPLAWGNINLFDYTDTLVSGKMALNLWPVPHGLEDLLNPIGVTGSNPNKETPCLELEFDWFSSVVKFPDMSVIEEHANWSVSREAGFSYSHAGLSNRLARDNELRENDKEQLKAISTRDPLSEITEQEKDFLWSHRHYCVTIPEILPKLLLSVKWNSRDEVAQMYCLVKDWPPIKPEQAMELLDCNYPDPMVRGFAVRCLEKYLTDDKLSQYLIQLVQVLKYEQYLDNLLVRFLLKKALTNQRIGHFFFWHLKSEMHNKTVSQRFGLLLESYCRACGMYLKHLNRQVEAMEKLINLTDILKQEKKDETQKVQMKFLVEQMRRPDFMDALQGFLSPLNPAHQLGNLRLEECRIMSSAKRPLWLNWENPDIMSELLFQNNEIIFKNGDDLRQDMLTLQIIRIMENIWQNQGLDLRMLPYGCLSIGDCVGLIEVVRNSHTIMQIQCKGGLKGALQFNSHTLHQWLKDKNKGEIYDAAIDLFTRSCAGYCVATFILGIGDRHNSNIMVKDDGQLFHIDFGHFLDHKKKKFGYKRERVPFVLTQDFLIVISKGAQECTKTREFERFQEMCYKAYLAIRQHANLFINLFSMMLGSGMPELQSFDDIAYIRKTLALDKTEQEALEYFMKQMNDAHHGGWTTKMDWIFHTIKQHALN
UniProt P42338: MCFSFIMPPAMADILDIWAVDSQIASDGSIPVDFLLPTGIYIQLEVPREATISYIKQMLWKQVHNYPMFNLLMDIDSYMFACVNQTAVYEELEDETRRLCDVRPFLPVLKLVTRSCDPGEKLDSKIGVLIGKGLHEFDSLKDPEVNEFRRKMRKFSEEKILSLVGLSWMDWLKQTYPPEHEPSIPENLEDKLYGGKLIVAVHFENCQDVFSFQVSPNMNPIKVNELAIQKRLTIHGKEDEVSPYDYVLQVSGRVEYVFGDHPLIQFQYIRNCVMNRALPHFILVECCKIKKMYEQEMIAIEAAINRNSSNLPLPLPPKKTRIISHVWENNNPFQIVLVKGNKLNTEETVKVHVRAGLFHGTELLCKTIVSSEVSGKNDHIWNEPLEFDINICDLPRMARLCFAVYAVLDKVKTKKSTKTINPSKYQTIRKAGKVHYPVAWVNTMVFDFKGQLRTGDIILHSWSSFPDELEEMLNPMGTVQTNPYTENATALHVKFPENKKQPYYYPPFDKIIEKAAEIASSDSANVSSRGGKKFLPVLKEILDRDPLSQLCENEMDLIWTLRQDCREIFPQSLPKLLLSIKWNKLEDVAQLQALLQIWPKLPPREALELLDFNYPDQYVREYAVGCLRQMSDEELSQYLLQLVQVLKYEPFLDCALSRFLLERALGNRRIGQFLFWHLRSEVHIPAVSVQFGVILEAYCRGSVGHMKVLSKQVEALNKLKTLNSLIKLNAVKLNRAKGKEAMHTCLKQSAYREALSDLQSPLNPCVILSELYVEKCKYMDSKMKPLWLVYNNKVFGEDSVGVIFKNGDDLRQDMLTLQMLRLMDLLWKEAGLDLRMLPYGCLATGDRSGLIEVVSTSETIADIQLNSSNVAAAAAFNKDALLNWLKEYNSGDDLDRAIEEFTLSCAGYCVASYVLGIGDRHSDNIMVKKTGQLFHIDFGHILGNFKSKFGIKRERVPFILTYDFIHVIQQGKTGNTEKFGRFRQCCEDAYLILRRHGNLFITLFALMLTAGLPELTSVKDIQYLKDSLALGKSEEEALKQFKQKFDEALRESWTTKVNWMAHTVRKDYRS

One assay addresses PIK3CA (UniProt P42336). Description: Inhibition of PIK3CA Kinase Activity. As to conditions: concentration not given here.
In the next assay the target is PIK3CB (UniProt P42338). The assay can be described thus: Inhibition of PIK3CB Kinase Activity.

Each structure is given as a SMILES string. Several values for one entry are separate records, joined by “and”; a condition that tells them apart may be missing. Equal values may be shown once.

As usually defined, the inhibition is the relative decrease from the control value, in per cent. As to `Cc1ccccc1-n1c(Cn2cnc3c(N)ncnc32)nc2cccc(C)c2c1=O`, the inhibition at PIK3CA was 5%.
A word on the IC50: it is the midpoint of a concentration-inhibition curve. For the compound `O=c1cc(N2CCOCC2)oc2c(-c3ccccc3)cccc12`, at PIK3CB, the IC50 is 3.7 µM and 0.4 µM.
